# Screens deposited in PubChem BioAssay by several laboratories.
# PKA-R2B activ: activators of PKA-R2B holoenzyme, primary screen, biochemical, fluorescence polarization, Cy5-IP20, human. cAMP-dependent protein kinase catalytic subunit beta (Homo sapiens) + cAMP-dependent …. PKA-R2B holoenzyme dissociation; R2B truncated from residue 108, S112A mutant; 0% DMSO only, 100% 113 µM cGMP. activation, % at 11.4 µM. 340,000 tested, 0.079% active. AID 504700, 2011;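 active = activation above a cutoff set at the mean over all compounds plus 3 SD, cut at about 18% in these data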;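 also: higher means more holoenzyme dissociation and a rise in polarization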
# PKA-R1A act: activators of PKA-R1A holoenzyme, primary screen, biochemical, fluorescence polarization, Cy5-IP20, bovine R1A, mouse PKAc. AID 504707, 2011. PKA-R1A dissociation; scaled: DMSO 0%, 113 µM cGMP 100%. 340,000 tested, 0.083% active. activation, % at 11.4 µM;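 active = percent activation above the mean of all tested compounds plus 3 SD, cut at about 19% in these data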;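 also: higher means more PKAc released from R1A so a rise in polarization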
# p-CIP stab down: p/CIP-EGFP fusion destabilizers, primary screen, fluorescence, F442A cells; Q05BA5; 16 h; decrease of EGFP signal, % at 10 µM; 290,000 tested, 0.01% active;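 active = EGFP signal decrease of at least 30% at 10 µM or well 3 SD below plate mean, unless failing retest; inactive = the rest, including hits failing retest or dose response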
# UUG fidelity: modulators of start codon recognition fidelity in yeast; AID 602363; activity score, % at 18.7 µM; S. cerevisiae UUG-firefly luciferase reporter, luminescence/redox ratio; actives 0.13% (n = 350,000);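 active = replicate mean at a twofold rise or more, about +100% in these data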;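 note: firefly luciferase made from a UUG start codon reports start codon fidelity; reporter light over untreated wells divided by growth signal over untreated wells; some hits fall short of that in this replicate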
# Exocytosis inh: LAMP-1 surface exposure blockers, TALL-104 cells – cell-based, flow cytometry, MLPCN library, primary screen; TALL-104 LAMP-1 surface exposure; cells stimulated with thapsigargin and PMA; 360,000 tested, 0.66% active; inhibition, % at 10 µM;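 active = inhibition above about 55%, limit read from the data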
# ABCB6 inh 2: ABCB6 transporter inhibitors, primary screen, K562-ABCB6 cells, flow cytometry, MLPCN library; ATP-binding cassette sub-family B member 6 (Homo sapiens), Q9NP58; K562-ABCB6 porphyrin accumulation, 1 h; hits give low values; fluorescence ratio to DMSO, % at 10 µM; 360,000 tested, 0.19% active; AID 602162, 2011;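 active = fluorescence ratio to DMSO below 75%, the collection mean minus 3 SD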;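 also: signal is porphyrin accumulated inside mitochondria; 100% equals median channel fluorescence of DMSO control wells; lower ratio means ABCB6 inhibition with less porphyrin fluorescence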
# ABCB6 blocker 1: ABCB6 transporter inhibitors, confirmation, K562-ABCB6 cells, flow cytometry, cherry pick 1 | K562-ABCB6 porphyrin accumulation, 1 h; hits give low values | shares compounds with ABCB6 inh 2 | 700 tested, under 10 active | ratio response (% of DMSO), % at 10 µM;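 active = repeat-averaged ratio response below 75% of DMSO, the collection mean minus 3 SD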;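 also: median porphyrin fluorescence at 575 nm with 488 nm excitation from mitochondria; lower ratio means less porphyrin signal so ABCB6 inhibition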
# Starred values were filed as active, the others as inactive; / = no result. Rows were chosen to be rich in hits. Some 0.94% of all compounds tested hit in one or more screens of this group.
p-CIP stab down | Exocytosis inh | ABCB6 blocker 1 | PKA-R2B activ | UUG fidelity | ABCB6 inh 2 | PKA-R1A act | Compound
-9.6 | 4.1 | 98.0 | 1.6 | 4.0 | 69.0* | -6.0 | CC(=O)NC(Cc1c[nH]c2ccccc12)C(=O)N1CCc2ccccc2C1 (stereo not drawn)
-7.8 | -1.0 | 99.0 | -6.7 | / | 67.0* | -4.4 | O=C(CSc1ccc2ccccc2c1Br)Nc1cccc(S(=O)(=O)NC2=NCCCCC2)c1
0.9 | 3.8 | 101.0 | -0.4 | 0.8 | 51.0* | 5.6 | COc1ccc([C@@H]2Sc3cc(OC)ccc3N(CCN(C(C)C)C(C)C)C(=O)[C@H]2OC(C)=O)cc1
10.8 | 12.5 | 104.0 | -0.5 | -6.4 | 46.0* | 2.2 | CC(=O)CN1C(=O)NC(c2ccccc2)(c2ccccc2)C1=O
/ | -2.2 | / | 0.4 | / | 99.0 | 8.2 | CCN1C(=O)NC(c2ccccc2)(c2ccccc2)C1=O
/ | -8.7 | 100.0 | / | -4.3 | 74.0* | / | c1ccc(OCCNc2ccn3nc(-c4ccc(OCCN5CCOCC5)cc4)cc3n2)cc1
/ | -24.4 | / | / | -5.1 | 106.0 | / | c1csc(CNc2ccn3nc(-c4ccc(OCCN5CCOCC5)cc4)cc3n2)c1
/ | 4.6 | 97.0 | / | -17.2 | 68.0* | / | c1ccc(COc2cccc(-c3cc4nc(NCc5ccc6c(c5)OCO6)ccn4n3)c2)cc1
-11.6 | -3.3 | 98.0 | 5.1 | -13.2 | 72.0* | -13.9 | O=C(COC(=O)c1ncc(Cl)c(Cl)c1Cl)c1ccc(Cl)s1
-19.6 | 1.4 | 101.0 | 2.9 | -29.1 | 66.0* | -14.5 | O=c1c2c3c(sc2n2cnnc2n1CCc1ccccc1)CCCC3
/ | / | / | / | 1.8 | / | / | CCCN(C)C[C@@H]1OCCCC[C@@H](C)Oc2ccc(NS(=O)(=O)c3cn(C)cn3)cc2C(=O)N([C@@H](C)CO)C[C@@H]1C
-5.0 | -3.7 | 98.0 | -2.8 | -5.0 | 67.0* | 10.4 | NS(=O)(=O)c1ccc(CCNC(=O)CCCNC(=O)c2ccc(Cl)cc2)cc1

# The results go on.
p-CIP stab down | Exocytosis inh | ABCB6 blocker 1 | PKA-R2B activ | UUG fidelity | ABCB6 inh 2 | PKA-R1A act | Compound
-1.7 | -10.0 | / | 5.7 | -16.1 | 98.0 | -7.1 | NS(=O)(=O)c1ccc(CCNC(=O)c2ccc(Cl)nc2)cc1
/ | / | / | / | 21.4 | / | / | C[C@@H]1CN([C@H](C)CO)C(=O)c2cc(NC(=O)c3ccncc3)ccc2O[C@@H]1CN(C)Cc1ccc(-c2ccccc2)cc1
2.1 | 0.3 | 103.0 | 2.6 | 5.5 | 68.0* | -6.7 | O=C1N(CCCN2C(=O)C3(OCCO3)c3ccccc32)c2ccccc2C12OCCO2
0.7 | 3.5 | / | 1.5 | -12.5 | 92.0 | -4.4 | CCC(=O)N1CCc2cc(S(=O)(=O)N(CC)c3cccc(C)c3)ccc21
3.7 | 7.5 | 101.0 | -3.1 | -9.9 | 72.0* | -9.9 | CCN(c1cccc(C(F)(F)F)c1)S(=O)(=O)c1ccc2c(c1)CCN2C(=O)C1CC1
8.8 | -2.8 | 98.0 | -3.3 | 11.5 | 65.0* | -9.8 | CCC(=O)Nc1ccc(N2CCN(C(=O)c3ccccc3C)CC2)cc1
-14.3 | 0.5 | / | 7.0 | -5.3 | 97.0 | -5.1 | Cc1ccccc1C(=O)N1CCN(c2ccc(NC(=O)Cc3ccccc3)cc2)CC1
-0.6 | -0.3 | 104.0 | -2.0 | -22.9 | 44.0* | -12.4 | Cc1ccccc1OCC(=O)OCC(=O)c1ccc(OC(=O)c2ccccc2)cc1
/ | / | / | / | 16.6 | / | / | CC(C)c1cn(CC[C@H]2CC[C@H](NC(=O)C3CCCC3)[C@@H](CO)O2)nn1
5.2 | 3.1 | / | 0.2 | -13.6 | 97.0 | -18.9 | COc1ccc(-n2c(C(C)n3nc(C)c([N+](=O)[O-])c3C)n[nH]c2=S)cc1 (stereo not drawn)
1.2 | 0.9 | 98.0 | -15.7 | -9.9 | 61.0* | 2.7 | Cc1ccc(-n2c(C(C)n3nc(C)c([N+](=O)[O-])c3C)n[nH]c2=S)cc1 (stereo not drawn)
-19.2 | -0.1 | / | -7.1 | -19.8 | 92.0 | -1.9 | CCOC(=O)CN1C(=O)Nc2ccc(Br)cc2C1c1ccccc1 (stereo not drawn)

# (further entries)
p-CIP stab down | Exocytosis inh | ABCB6 blocker 1 | PKA-R2B activ | UUG fidelity | ABCB6 inh 2 | PKA-R1A act | Compound
0.4 | 19.6 | 95.0 | -3.5 | / | 73.0* | -23.5 | CCOC(=O)CN1C(c2ccc(O)cc2)Nc2ccc(Br)cc2C1c1ccccc1 (stereo not drawn)
/ | 4.3 | 102.0 | -1.3 | -0.3 | 72.0* | -9.4 | CC(C)(CNC(=O)c1ccc(S(=O)(=O)Nc2cccc(C(F)(F)F)c2)cc1)N1CCOCC1
-4.2 | -2.2 | / | -9.0 | 6.0 | 97.0 | -1.3 | O=C(c1ccc(S(=O)(=O)Nc2cccc(C(F)(F)F)c2)cc1)N1CCOCC1
/ | / | / | / | 16.8 | / | / | C[C@@H]1CN([C@@H](C)CO)C(=O)Cc2cc(NS(=O)(=O)c3cn(C)cn3)ccc2O[C@H]1CN(C)Cc1ccc(Cl)c(Cl)c1
-8.6 | 10.4 | 99.0 | -6.7 | -9.9 | 69.0* | -3.0 | CCCOc1ccc(-c2nc(=S)[nH][nH]2)cc1
-6.8 | -4.6 | / | -8.0 | -22.4 | 99.0 | -3.7 | S=c1nc(-c2ccc(Cl)cc2)[nH][nH]1
/ | / | / | / | 5.8 | / | / | COc1ccc(CN(C)C[C@H]2Oc3ccc(NC(=O)CCC(F)(F)F)cc3CC(=O)N([C@H](C)CO)C[C@@H]2C)cc1
/ | / | / | / | 35.6 | / | / | Cc1ccccc1S(=O)(=O)N1C[C@@H](O)COC[C@@H]2O[C@@H](CC(=O)NCc3ccccc3Cl)CC[C@H]21
/ | / | / | / | -14.5 | / | / | C[C@@H]1CCCCO[C@H](CN(C)S(=O)(=O)c2cccs2)[C@H](C)CN([C@H](C)CO)C(=O)c2cc(NC(=O)Nc3ccc(F)cc3)ccc2O1
-5.3 | 4.4 | / | -1.3 | -7.2 | 103.0 | -21.5 | Cn1c(SCC(=O)Nc2ccc(N3CCOCC3)cc2)nnc1-c1ccccc1
/ | -1.1 | 100.0 | -7.6 | -15.8 | 69.0* | -13.7 | CC(Sc1nnc(-c2ccncc2)n1C)C(=O)Nc1ccc(N2CCOCC2)cc1 (stereo not drawn)
-19.4 | 0.3 | 100.0 | -10.1 | 2.4 | 57.0* | -0.1 | O=C(O)CCCCCNc1nc2ncn(Cc3ccccc3)c2c(=O)[nH]1
2.2 | 1.7 | / | 8.6 | -12.3 | / | 1.6 | CC(Nc1nc2ncn(Cc3ccccc3)c2c(=O)[nH]1)C(=O)O (stereo not drawn)
-3.5 | 1.0 | 100.0 | -6.7 | -4.0 | 67.0* | -12.4 | CCOc1cc(C(=O)N2CCN(C/C=C/c3ccccc3)CC2)cc(OCC)c1OCC
4.8 | 2.2 | 101.0 | -4.8 | 16.7 | 53.0* | -2.4 | O=C(NCc1ccc2c(c1)OCO2)c1ccc(Cl)c(S(=O)(=O)N2CCOCC2)c1

# One compound at a time, as listed above. Order of screens: p-CIP stab down, Exocytosis inh, ABCB6 blocker 1, PKA-R2B activ, UUG fidelity, ABCB6 inh 2, PKA-R1A act
# Shown for CCOC(=O)CN1C(c2ccc(O)cc2)Nc2ccc(Br)cc2C1c1ccccc1 (stereo not drawn) = 0.4, 19.6, 95.0, -3.5, /, 73.0*, -23.5
# Shown for O=C(c1ccc(S(=O)(=O)Nc2cccc(C(F)(F)F)c2)cc1)N1CCOCC1 = -4.2, -2.2, /, -9.0, 6.0, 97.0, -1.3
# Shown for CC(C)(CNC(=O)c1ccc(S(=O)(=O)Nc2cccc(C(F)(F)F)c2)cc1)N1CCOCC1 = /, 4.3, 102.0, -1.3, -0.3, 72.0*, -9.4
# Shown for O=C(O)CCCCCNc1nc2ncn(Cc3ccccc3)c2c(=O)[nH]1 = -19.4, 0.3, 100.0, -10.1, 2.4, 57.0*, -0.1
